Experimental findings from patent publication US5002943A, “Condensed diazepinones, processes for preparing them and pharmaceutical compositions containing these compounds” (priority 1988, dated 1991) are described below.

This experiment deals with muscarinic receptors (cerebral cortex). Put plainly: Muscarinic receptor binding, cerebral cortex (displacement of 3H-N-methylscopolamine). Further details: species or system male Sprague-Dawley rats. The following applies: cerebral cortex homogenate; 0.3 nanomolar 3H-NMS; 30 C; 45 minutes; pH 7.4; read-out: Receptor Binding Tests IC50, Cortex.

Turning to `CCN(CC)CC1CCCCN1CC(=O)N1c2ccccc2C(=O)Nc2cccnc21` (stereo not shown) [Substance D, 11-[[2-[(diethylamino)methyl]-1-piperidinyl]acetyl]-5,11-dihydro-6H-pyrido[2,3-b][1,4]benzodiazepin-6-one, reference compound], the IC50 (commonly the midpoint of a concentration-inhibition curve) turned out to be 1200 nM.
